Data on five compounds can be found in patent US20070088033A1, “Diaryl Substituted Pyridinones” (priority 2002, published 2007).

The chains behind the UniProt entries cited, without tags or fusion partners.
UniProt Q16539, whole entry: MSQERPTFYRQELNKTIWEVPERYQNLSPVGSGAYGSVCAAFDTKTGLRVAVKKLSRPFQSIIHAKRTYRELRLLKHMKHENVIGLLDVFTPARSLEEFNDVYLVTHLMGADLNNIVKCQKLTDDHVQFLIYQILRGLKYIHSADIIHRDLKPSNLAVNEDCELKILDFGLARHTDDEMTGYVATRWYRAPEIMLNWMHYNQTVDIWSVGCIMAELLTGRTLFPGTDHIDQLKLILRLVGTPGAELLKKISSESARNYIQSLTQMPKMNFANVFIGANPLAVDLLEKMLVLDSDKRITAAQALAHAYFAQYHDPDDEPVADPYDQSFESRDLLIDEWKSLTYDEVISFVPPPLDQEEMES

In the test the target is T1, human p38 kinase alpha (Homo sapiens, UniProt Q16539).
T1 construct: The coding region of the human p38 cDNA was obtained by PCR-amplification from RNA isolated from the human monocyte cell line THP.1; GST (N); made in house; host or cells: E. coli DH10B
The test can be described thus: p38 kinase in vitro assay. Particulars: n=1 if not reported. In kind it is biochemical.

The mark [1] stands for this setting: Table III, n = number of times assayed.

As usually defined, the IC50 is the midpoint of a concentration-inhibition curve. A lower IC50 goes with higher potency. Under setting [1], `Cc1cc(OCc2ccc(F)cc2)c(Br)c(=O)n1Cc1ccncc1` [AAAAA] yielded an IC50 of 394 nM.

As to `Cc1cc(OCc2ccc(F)cc2)c(Br)c(=O)n1Cc1ccccn1` [KK], half-maximal inhibition (Table I, average of n trials) (IC50) required 997 nM.

The compound `Cc1cc(OCc2ccc(F)cc2)c(Br)c(=O)n1Cc1cccnc1` [N] displayed an IC50 (Table I, average of n trials) of 381 nM.

As to `Cc1cc(OCc2ccc(F)cc2)c(Br)c(=O)n1Cc1cccnc1` [ZZZZ], the IC50 under setting [1] was 381 nM.

On to `Cc1cc(OCc2ccc(F)cc2)c(Br)c(=O)n1Cc1ccncc1` [O], for which, under “Table I, average of n trials”, inhibition was half-maximal at 394 nM (IC50).
